Yeast mating assay B: variants of the scFv Ab-14

Target: peptide PDVDLGDISGINAS, taken from heptad repeat 2 (HR2) of SARS-CoV-2 spike.

Parent scFv Ab-14: VH joined to VL by three GGGGS repeats. Changes lie in the heavy chain CDRs alone.
VH: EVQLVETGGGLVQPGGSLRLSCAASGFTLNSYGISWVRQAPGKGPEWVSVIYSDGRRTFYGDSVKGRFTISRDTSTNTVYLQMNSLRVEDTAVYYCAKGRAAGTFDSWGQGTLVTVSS
VL: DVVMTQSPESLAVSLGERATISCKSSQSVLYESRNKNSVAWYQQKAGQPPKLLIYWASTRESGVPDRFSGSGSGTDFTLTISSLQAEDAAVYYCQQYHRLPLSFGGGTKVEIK

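Designed CDR sequences, proposed from the first random library and measured here. Group labels follow the data file (Ctrl: baseline library sampled from a position-specific scoring matrix, with some repeated check sequences; Rand: our label for a block that the file lists under HC and that is probably the random mutants of the ten best first-round binders; En: ensemble of fine-tuned language models; GP: Gaussian process model; GPLM: also part of the Gaussian process libraries; HC: hill climbing; Gen: genetic algorithm; Gibbs: Gibbs sampling; a sequence that several methods proposed may carry one label only). The assay is AlphaSeq: two haploid yeast populations carry antibody and antigen on their surface. The frequency of each diploid, read from paired DNA barcodes, reflects how well the two displayed proteins bind. Read counts were normalised to the haploid input and turned into Kd by a linear fit to BCL2-family pairs of known affinity, for each replicate. The assay was run in six technical replicates.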

The parent's heavy chain CDRs are GFTLNSYGIS, VIYSDGRRTFYGDSVK, GRAAGTFDS; each variant's own CDRs replace them letter for letter. The Kd shown is the geometric mean over detected replicates; a lower Kd is a better binder. A pair that was not seen in any replicate is written "nd"; this usually means weak binding, but a binder can also be missed. Three control strains display no target. For all heavy chain designs, 1% of the pairings with them gave a signal, with a median of 120 nM and one signal in twenty below 7.0 nM, so weak values seen in few replicates may be background. The control count says in how many pairings with the empty strains this scFv gave a signal.

CDR-H1	CDR-H2	CDR-H3	group	apparent Kd	replicates with signal	control signals
GEDLQEYGIS	VIYADGLRTKYADKVK	GNINGYFDD	En_Gibbs	nd	0 of 6	0 of 18
GFALNEYGIS	VIYSDGRRTMYGDSVK	GRTAGTFDS	GP_Gibbs	400 pM	6 of 6	0 of 18
SFELNSYGIS	VIYADGRRTFYGDSVK	GRAAGTFDS	GP_HC	8.2 nM	6 of 6	0 of 18
GFTLNEYGIS	VIYSDGRRTFYGDSVK	GRAAVTFDH	GP_HC	nd	0 of 6	0 of 18
GFTLNSYGIS	VIYSDGRRTFYGDSVK	GRQAGTFDS	Ctrl	31 nM	6 of 6	0 of 18
EFDLNEYGIS	VIYADGHRSFYADHVK	GQVAGIFFM	En_Gibbs	nd	0 of 6	0 of 18
KFSLNSYGIS	VIYSDGRRTFYADSVK	GRNAGTFDS	GP_Gen	170 pM	1 of 6	0 of 18
GFDLNEYGIS	VIYADGKRTFYSDSVK	GQTAGTFDA	En_HC	1.0 nM	6 of 6	0 of 18
GFTLNSYGIS	VIYSDGRRTFYGDEVK	GQAAGTFDS	Ctrl	78 nM	3 of 6	0 of 18
GFDLESYGIS	VIYADGRRTFYSDSVK	GNNAGTFDI	En_HC	4.6 nM	6 of 6	1 of 18
GFQLNEYGIS	VIYSDGRRTFYGDSVK	GHAAGTFDS	GPLM_Gen	30 nM	6 of 6	0 of 18
GFPLNEYGIS	VIYSDGRRTFYGDSVK	GKTAGTFDS	GP_Gen	35 pM	2 of 6	0 of 18
GFELNSYGIS	VIYSDGRRTFYSDSVK	GRLAGTFDS	GPLM_Gibbs	820 pM	6 of 6	0 of 18
GFDLNWYGIS	VIYSDGRRTFYADSVK	GRTAGTFDS	GP_Gibbs	2.3 nM	6 of 6	1 of 18
GFDLNEYGIS	VIYADGKRTYYADDVK	GENAGTFDV	En_Gen	12 nM	5 of 6	0 of 18
GFTLNSYGIS	VIYSDGRRTFYGDSVK	GYAKGTFDS	Ctrl	nd	0 of 6	0 of 18
GFDINEYGIS	VIYADGRRTFYSDSVK	GGNAGTFDV	En_HC	1.4 µM	3 of 6	0 of 18
GFDLNEYGIS	VIYADGRRTFYTDSVK	GEFAGTFDT	En_HC	1.0 nM	6 of 6	0 of 18
GFDLNEYGIS	VIYADGQRTAYADSVK	GEVAGTFDT	En_Gen	330 pM	6 of 6	0 of 18
GFDLQEYGIS	VIYADGARKSYTNSVK	GVVGGGMDV	En_Gibbs	nd	0 of 6	0 of 18
GFDLEEYGIS	VIYFDGRRTFYTDSVK	GRAAGTFDC	Ctrl	2.2 nM	6 of 6	1 of 18
GFTLNSYGIS	VIYSDGMRTFYGDSVK	LRAAGAFDS	Ctrl	1.3 µM	1 of 6	1 of 18
GFDLNEYGIS	VIYADGMRTAYTDSVK	GSNAGTFDV	En_Gen	270 pM	6 of 6	0 of 18
GFDLNEYGIS	VIYADGMRTVYADSVK	GEVAGTFDT	En_Gen	1.3 nM	6 of 6	0 of 18
GFGLNSYGIS	VIYSDGRRTFYGDSVK	GHVAGTFDS	GP_Gibbs	8.4 nM	6 of 6	1 of 18
GFDLEEYGIS	VIYADGRRTAYSDSVK	GNVAGTFDL	En_Gen	1.7 nM	6 of 6	0 of 18
GFELNSYGIS	VIYSDGRRTFYQDSVK	GKAAGTFDT	GPLM_Gibbs	3.4 nM	6 of 6	0 of 18
GFDLNEYGIS	VIYADGRRTGYADSVK	GQLAGTFDT	En_HC	140 pM	6 of 6	0 of 18
GFDLDEYGIS	VIYADGKRTAYSDSVK	GQVAGTFDL	En_Gen	410 pM	6 of 6	0 of 18
GFTLNSYGIS	VIYADGRRTFYGDSVK	GRAAGTDDS	Ctrl	nd	0 of 6	0 of 18
GFDLNEYGIS	VIYADGRRTFYKDSVK	GEVAGTFDQ	En_HC	890 pM	6 of 6	0 of 18
GFVLNSYGIS	VIYSDGKRTFYADSVK	GRTAGTFDS	GP_Gibbs	3.6 nM	6 of 6	1 of 18
GFSLNSYGIS	VIYSDGRRTFYGDSVK	GKAAGTFDK	GPLM_Gen	25 nM	6 of 6	0 of 18
GFQLNSYGIS	VIYSDGRRTFYSDSVK	GKQAGTFDS	GP_Gibbs	4.6 nM	6 of 6	0 of 18
GFTLNSYGIS	VIYSDGRRTFYGDSVK	GSLAGTFDS	Ctrl	12 nM	6 of 6	0 of 18
GFTLNSYGIS	VIYSDGRRTFYGDSVK	GRCAGTFHH	Ctrl	3.3 nM	6 of 6	0 of 18
GFDLNSYGIS	VIYSDGRRTFYGDSVK	GRAAGIFNS	GPLM_HC	84 nM	5 of 6	0 of 18
GFALNLYGIS	VIYSDGRRCFYKDSVK	GRAAGTFDS	Ctrl	220 nM	1 of 6	0 of 18
GFDVEKYGIS	VIYADGYRSAYASNVK	GGEAGNFHV	En_Gibbs	nd	0 of 6	0 of 18
GFDLNEYGIS	VIYADGRRTFYADSVK	GNAAGTFIV	En_HC	380 pM	6 of 6	0 of 18
GFSLNSYGIS	VIYSDGRRTFYGDSVK	GMVAGTFDS	GPLM_Gen	1.3 nM	6 of 6	0 of 18
GFGLNSYGYS	VIYSDGRRTFYGDSVK	GRAAGRFDS	Ctrl	nd	0 of 6	0 of 18
GFTLNEYGIS	VIYSDGRRTFYGDHVK	GKTAGTFDS	GP_Gibbs	3.9 nM	6 of 6	0 of 18
GSDLDSYGIS	VIYSDGHRTFYGDSVK	GRAAGWFNS	Rand	nd	0 of 6	0 of 18
GVDLDEYGIS	VIYADGHRRYYAANVK	GVNIDGFDL	En_Gibbs	66 nM	1 of 6	0 of 18
GFDINEYGIS	VIYADGRRVYYADDVK	GKNLENFSF	En_Gibbs	nd	0 of 6	0 of 18
GFNLEDYGIS	VIYADGIRMSYAEAVK	GQNSGVIVN	En_Gibbs	nd	0 of 6	0 of 18
GFSLNSYGIS	VIYSDGRRTAYGDSVK	GNAAGTFDS	GPLM_Gibbs	5.2 nM	6 of 6	0 of 18
GFTINSYGIS	VIYSDGRRTFYTDSVK	GRAAGTFDL	Ctrl	34 nM	2 of 6	0 of 18
GQDLQEYGVS	VIYADGSRTAYADSFK	GQSLGNIVQ	En_Gibbs	nd	0 of 6	0 of 18
GFTLNSYGIS	VIYSDGRRTFYDDSVK	GQTAGKFDS	GP_HC	nd	0 of 6	0 of 18
GFSLDEYGIS	VIYADGVRTQYHDNVK	GTGGFDIEL	En_Gibbs	nd	0 of 6	0 of 18
GFTLNSYGIS	VIYSDGKRTFYGDSVK	GKEAGTFDT	GP_Gen	3.1 nM	6 of 6	0 of 18
GFDLNEYGIS	VIYADGVRTAYADNVK	GETAGTFDL	En_Gen	130 pM	6 of 6	1 of 18
GFTLNMYGIS	VIYADGRRTFPPDSVK	GRAAGTNKS	Rand	nd	0 of 6	0 of 18
GFTLDSYGIS	VIYSDGRRTFYTDSVK	GQLAGTFDS	GP_HC	19 nM	6 of 6	1 of 18
SFDLNSYGIS	VIYSDGRRTAYGDSVK	GRAAGTFDS	GP_Gen	7.2 nM	6 of 6	0 of 18
GFSLNQYGIS	VIYSDGRRTFYSDSVK	GQDAGTFDS	GP_HC	4.3 nM	5 of 6	0 of 18
GFTLNSYGIS	VIYSDGRRTFYGDSVK	GQAAGTFDI	Ctrl	11 nM	6 of 6	0 of 18
GFTLNSYGIS	VIYADGRRTFYGDSVK	GRNTGTFLS	Ctrl	nd	0 of 6	0 of 18
GFTLESYGIS	VIYSDGRRTFYSDRVK	GQAAGTFDS	GP_Gibbs	10 nM	4 of 6	0 of 18
GYTLTSYGIS	VIYSDGRRTFYGDSVK	GIAAGTFSS	Ctrl	680 pM	6 of 6	0 of 18
GFDLNEYGIS	VIYADGMRTQYIDSVK	GNVAGTFDV	En_HC	4.7 nM	6 of 6	0 of 18
GFDLNEYGIS	VIYADGQRTYYADSVK	GNNAGTFDV	En_Gen	450 pM	6 of 6	1 of 18
GFDLNEYGIS	VIYADGVRTFYADSVK	GNQAGTFDI	En_Gen	320 pM	6 of 6	0 of 18
GEQLNSYGIS	VIYSDGRRTFYGDSVK	GRAAGTFDS	Ctrl	300 nM	1 of 6	0 of 18
GFKLNSYGIS	VIYSDGRRTAYGDSVK	GRQAGTFDS	GP_Gibbs	20 nM	6 of 6	0 of 18
GFTLDSYGIS	VIYSDGRRTFYQDSVK	GRAAGTFDS	Ctrl+GP_HC	7.8 nM	8 of 12	0 of 36

3 of these entries, quoted again:

CDR-H1	CDR-H2	CDR-H3	group	apparent Kd	replicates with signal	control signals
GQDLQEYGVS	VIYADGSRTAYADSFK	GQSLGNIVQ	En_Gibbs	nd	0 of 6	0 of 18
GFSLNSYGIS	VIYSDGRRTAYGDSVK	GNAAGTFDS	GPLM_Gibbs	5.2 nM	6 of 6	0 of 18
GFVLNSYGIS	VIYSDGKRTFYADSVK	GRTAGTFDS	GP_Gibbs	3.6 nM	6 of 6	1 of 18

The authors' rule: three or more of the six replicates give a measured affinity, fewer mean a poor binder. A sequence that the file lists under several names has all its replicates pooled. Values of this round are not directly comparable with the first-round values of the same sequences. The parent sequence was in this pool as ten entries: three were never detected, three once, and four in most replicates, with averages from 2.2 nM to 240 nM.

The measurements come from Li et al. 2023 (doi:10.1038/s41467-023-39022-2) through the FLAb antibody collection.